Biological target: T1, mouse GLP-1R S33W (Mus musculus, UniProt O35659, S33W)
T1 sequence (O35659 22-463 S33W): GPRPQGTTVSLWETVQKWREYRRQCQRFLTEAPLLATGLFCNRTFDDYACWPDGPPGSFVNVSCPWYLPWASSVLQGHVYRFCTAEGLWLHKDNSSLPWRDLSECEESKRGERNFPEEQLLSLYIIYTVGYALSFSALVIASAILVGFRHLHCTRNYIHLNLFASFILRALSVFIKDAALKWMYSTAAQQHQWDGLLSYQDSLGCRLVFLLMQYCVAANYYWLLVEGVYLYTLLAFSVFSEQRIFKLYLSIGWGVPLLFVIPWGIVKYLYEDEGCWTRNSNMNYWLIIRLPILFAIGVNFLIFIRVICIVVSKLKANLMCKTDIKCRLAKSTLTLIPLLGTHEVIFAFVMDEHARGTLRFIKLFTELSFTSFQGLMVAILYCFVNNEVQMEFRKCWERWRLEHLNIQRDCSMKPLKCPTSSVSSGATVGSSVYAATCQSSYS
Settings: mouse and human wild-type and mutant constructs

The chains behind the UniProt entries cited, without tags or fusion partners. Where a name states a change or a piece, a line headed by the entry shows the natural chain unless it says otherwise.
UniProt O35659: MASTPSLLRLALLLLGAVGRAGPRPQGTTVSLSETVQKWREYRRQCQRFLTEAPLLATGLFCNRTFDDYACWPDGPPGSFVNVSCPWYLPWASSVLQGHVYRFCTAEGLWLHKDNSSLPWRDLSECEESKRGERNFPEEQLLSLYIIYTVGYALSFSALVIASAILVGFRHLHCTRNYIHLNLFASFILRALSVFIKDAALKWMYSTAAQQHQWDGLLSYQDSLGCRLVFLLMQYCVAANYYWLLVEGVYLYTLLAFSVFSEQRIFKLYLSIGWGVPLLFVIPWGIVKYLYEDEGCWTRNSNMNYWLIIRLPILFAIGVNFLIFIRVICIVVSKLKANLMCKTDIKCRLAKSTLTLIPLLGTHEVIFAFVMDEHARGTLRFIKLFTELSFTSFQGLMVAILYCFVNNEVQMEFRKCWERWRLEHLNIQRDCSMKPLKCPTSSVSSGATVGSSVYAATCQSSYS

GLP-1 [reference compound]
cAMP signaling, wild-type versus mutant receptors: comparable between wild-type and mutant receptors

— PMC9234956 (Journal of Medicinal Chemistry, 2022)
